From PubChem BioAssay AID1347055 (National Center for Advancing Translational Sciences (NCATS), 2019)
Values joined by “and” are separate entries in the source; they are usually repeats but may differ in a detail not shown here. Equal values may be shown once. This is a selection; strong and weak results do not stand in their true shares. Results filed as inconclusive are left out. Active and inactive are the calls of the source. Calls follow the shape of the dose curve; as a rule, active = well fitted inhibition curve with a large enough effect; inconclusive = small, poorly fitted or top-dose-only effect, or effect the other way; inactive = flat fitted curve, though single readings scatter.

Sequences of proteins named here, by UniProt entry; tags and fusion partners are left off.
UniProt P07954, whole entry: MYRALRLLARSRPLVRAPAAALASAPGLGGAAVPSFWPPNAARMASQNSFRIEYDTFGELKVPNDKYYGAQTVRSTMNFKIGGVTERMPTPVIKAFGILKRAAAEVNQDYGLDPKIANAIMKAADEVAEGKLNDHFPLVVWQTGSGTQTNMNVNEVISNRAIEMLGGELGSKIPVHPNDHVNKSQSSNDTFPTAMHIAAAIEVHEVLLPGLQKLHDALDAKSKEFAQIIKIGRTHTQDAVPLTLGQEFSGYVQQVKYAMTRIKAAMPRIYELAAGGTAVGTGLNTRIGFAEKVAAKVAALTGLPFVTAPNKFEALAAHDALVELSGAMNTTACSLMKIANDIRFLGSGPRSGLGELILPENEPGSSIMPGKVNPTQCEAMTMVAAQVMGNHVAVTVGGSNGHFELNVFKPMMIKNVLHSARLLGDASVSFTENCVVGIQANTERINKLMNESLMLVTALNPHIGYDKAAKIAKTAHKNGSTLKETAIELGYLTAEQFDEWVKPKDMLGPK

molecular target: Fumarate hydratase, mitochondrial (Homo sapiens) (UniProt P07954); assay: Identification of activators of human fumarate hydratase by quantitative high-throughput screening; conditions: FH coupled MDH/diaphorase resazurin fluorescence, 15 min; at 79.9 µM (top of the series) unless noted; also: the screen sought activators but most active calls are inhibition curves; nearly all actives have a fitted effect of over 45% in size
Excerpt: Fumarate hydratase (FH) is a metabolic enzyme that is part of the Krebs-cycle, and reversibly catalyzes the hydration of fumarate to malate. Mutations of the FH gene have been associated with fumarate hydratase deficiency (FHD), hereditary leiomyomatosis, renal cell cancer (HLRCC), and other diseases. Currently there are no high-quality small molecule probes for studying human fumarate hydratase. To address this, we developed a quantitative high throughput screening (qHTS) FH assay and screened a total of 57,037 compounds in dose-response. While no inhibitors of FH were confirmed, a series of phenyl-pyrrolo-pyrimidine-diones (12 compounds) were identified as activators of human fumarate hydratase. […] The binding of two compounds from the series to human fumarate hydratase was confirmed by microscale thermophoresis. […]
For primary high-throughput screen, 3 ul of FH solution (containing 13.33nM human fumarate hydratase, 13.33IU/ml malic dehydrogenase, 0.2mM NAD, 0.067mg/ml diaphorase and 0.067mM resazurin in the assay buffer (50 mM Tris pH 8.0, 5 mM MgCl2, 0.01% Brij 3) was dispensed into each well in a black solid bottom 1536-well assay plate (Greiner Bio-One) using a BioRAPTR FRD dispenser (Beckman Coulter, Brea, CA). A 1536-well pintool dispenser outfitted with 20 nl pins (Wako Automation, San Diego, CA) was used to transfer 20 nL of DMSO-solubilized compound (Cherrypick plates) to each 1536-well assay plate. […] Plates were immediately transferred to a ViewLux microplate imager (PerkinElmer, Waltham, MA), and any resulting resorufin fluorescence was measured (exitation/emission, 525/598 nm) at 0 and 15 minutes. […] Fluorescence from each well was normalized using enzyme-free and DMSO-treated control wells on each plate, and changes in fluorescence (delta RFU) were calculated using the difference in fluorescent signal for each well at 15 minutes versus 0 minutes.
% is scaled to controls: 0 for no effect and ±100 for the full control effect.

| SMILES | activity change, negative = inhibition |
| --- | --- |
| CCC(=O)N(c1ccccc1)C1(COC)CCN(CCc2cccs2)CC1 | inactive: -5.07% |
| CCC(=O)N(c1ccccc1)C1(COC)CCN(CCn2nnn(CC)c2=O)CC1 | inactive: 0.75% |
| CN(CCCl)CCCl | inactive: -0.659% [at 53.3 µM] and inactive: -0.117% [at 53.3 µM] |
